In patent US9796741B2 (Achillion Pharmaceuticals, Inc., priority 2014, dated 2017):
Read-outs that look alike come from different tables or passages of the source.

Amino acid sequences for entries named in this document (tags omitted). Residues count along the entry.
UniProt P00746, 26-253: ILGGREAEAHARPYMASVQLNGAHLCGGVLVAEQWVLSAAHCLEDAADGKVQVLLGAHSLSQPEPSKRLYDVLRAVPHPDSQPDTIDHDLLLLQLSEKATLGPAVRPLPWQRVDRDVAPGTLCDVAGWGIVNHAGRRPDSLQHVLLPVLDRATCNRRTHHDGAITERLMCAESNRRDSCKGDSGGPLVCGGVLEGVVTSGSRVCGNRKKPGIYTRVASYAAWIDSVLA

Target: Human factor D (Homo sapiens (Human), UniProt P00746)
Assay: Human Factor D Assay
Type: biochemical
Procedure: Human factor D (purified from human serum, Complement Technology, Inc.) at 80 nM final concentration is incubated with test compound at various concentrations for 5 minutes at room temperature in 50 mM Tris, 1M NaCl, pH 7.5. A synthetic substrate Z-L-Lys-SBzl and DTNB (Ellman's reagent) are added to final concentrations of 100 μM each. The increase in color is recorded at OD405 nm in a microplate in kinetic mode over 30 minutes with 30 second time points in a spectrofluorimeter. IC50 values are calculated by non-linear regression from the percentage of inhibition of complement factor D activity as a function of test compound concentration.

[1] = human factor D 80 nM, substrate Z-L-Lys-SBzl, DTNB

Compound `NC(=O)c1nn(CC(=O)N2C[C@H](F)C[C@H]2C(=O)Nc2nc(-c3ccccc3Cl)ns2)c2ccc(-c3ccnnc3)cc12` [Compound 114, 1-(2-((2S,4R)-2-(3-(2-chlorophenyl)-1,2,4-thiadiazol-5-ylcarbamoyl)-4-fluoropyrrolidin-1-yl)-2-oxoethyl)-5-(pyridazin-4-yl)-1H-indazole-3-carboxamide] has an IC50 [1] of 1000 to 10000 nM.

`CC(=O)c1nn(CC(=O)N2C[C@H](F)C[C@H]2C(=O)Nc2cccc(Br)n2)c2ccc(-c3cnc(C)nc3)cc12` [Compound 165, (2S,4R)-1-(2-(3-acetyl-5-(2-methylpyrimidin-5-yl)-1H-indazol-1-yl)acetyl)-N-(6-bromopyridin-2-yl)-4-fluoropyrrolidine-2-carboxamide] gave an IC50 of less than 1000 nM.

`NC(=O)c1nn(CC(=O)N2C[C@H](F)C[C@H]2C(=O)Nc2cncc(Cl)c2)c2ccc(-c3ccnnc3)cc12` [Compound 67, 1-(2-((2S,4R)-2-(5-chloropyridin-3-ylcarbamoyl)-4-fluoropyrrolidin-1-yl)-2-oxoethyl)-5-(pyridazin-4-yl)-1H-indazole-3-carboxamide] showed an IC50 [1] of 1000 to 10000 nM.
